Measurements reported in US9206188B2, “Substituted pyrrolo[2,3-b]pyridines as ITK and JAK inhibitors” (Arrien Pharmaceuticals LLC, priority 2013, dated 2015).

Amino acid sequences for entries named in this document (tags omitted). A change or cut given only in a name is not applied to a line headed by its entry.
UniProt Q08881: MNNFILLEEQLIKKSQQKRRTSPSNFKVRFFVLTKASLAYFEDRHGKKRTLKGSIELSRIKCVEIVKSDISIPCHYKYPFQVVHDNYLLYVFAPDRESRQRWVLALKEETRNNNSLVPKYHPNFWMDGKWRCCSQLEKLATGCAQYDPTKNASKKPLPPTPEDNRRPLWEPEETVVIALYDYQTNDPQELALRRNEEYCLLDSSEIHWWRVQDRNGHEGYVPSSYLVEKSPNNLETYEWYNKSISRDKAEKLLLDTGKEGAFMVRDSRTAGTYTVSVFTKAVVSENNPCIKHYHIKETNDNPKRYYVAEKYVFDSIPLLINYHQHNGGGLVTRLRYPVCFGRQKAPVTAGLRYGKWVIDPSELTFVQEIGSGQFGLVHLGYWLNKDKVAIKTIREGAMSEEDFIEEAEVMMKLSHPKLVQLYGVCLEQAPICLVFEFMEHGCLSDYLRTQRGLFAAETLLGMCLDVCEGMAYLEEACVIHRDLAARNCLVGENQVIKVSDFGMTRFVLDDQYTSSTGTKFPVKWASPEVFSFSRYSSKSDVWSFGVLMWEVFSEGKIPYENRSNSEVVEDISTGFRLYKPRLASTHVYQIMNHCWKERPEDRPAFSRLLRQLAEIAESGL

Biological target: ITK (Homo sapiens (Human), UniProt Q08881)
Assay: ITK kinase assay (radiometric filter binding, 10 μM ATP)
Format: biochemical
Conditions: 10-dose IC50 mode, read-out: ITK kinase inhibition
Protocol: All additions were done on ice, followed by the addition of ATP mix. Wells were uniformly mixed using an Eppendorff plate shaker and incubated at 30° C. for 20 min, and stopped by the addition of 5 μL of 3% phosphoric acid. Volume was increased to 100 μL by adding 0.8% phosphoric acid which was then transferred to PC filter mats (Millipore), pre-equilibrated with 70% ethanol and water. Plates were washed thrice with 100 μL 0.8% phosphoric acid and dried for an hour at 60° C. 100 μL scintillation fluid was added into each well and reading taken in Perkin Elmer TOPCOUNT beta counter.
The reactions were carried out at 10 μM ATP for ITK, JAK3 and other TEC and Janus family of kinase.

(E)-N-(2-chloro-5-(3-methyl-1H- pyrrolo[2,3-b]pyridin-5- yl)phenyl)pent-1-enamide [Example 14]
IC50: > 100 nM
